In this assay the target is T1, FKBP12 (Homo sapiens, UniProt P62942).
T1 construct: 6His-SUMO (N, cleaved yes); made in house; host or cells: E. coli (identical protocol to FBD35, BL21 DE3)
Nature of the assay: Fluorescence polarization competition, FKBP12. Type of assay: binding. Background: Fluorescence polarisation rises when a labelled molecule tumbles more slowly, as on binding a larger partner.

The chains behind the UniProt entries cited, without tags or fusion partners.
UniProt P62942, whole entry: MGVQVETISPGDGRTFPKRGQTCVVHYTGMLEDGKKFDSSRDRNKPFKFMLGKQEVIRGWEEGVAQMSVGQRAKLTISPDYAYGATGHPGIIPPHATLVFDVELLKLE

Molecules are shown by their SMILES.

For `CCC(C)(C)C(=O)C(=O)N1CCCC[C@H]1C(=O)O[C@H](CCc1ccc(OC)c(OC)c1)c1cccc(N)c1` [SLF, reference compound], the IC50 (commonly the point on the concentration scale where inhibition reaches its midpoint) amounted to 70 nM.
